{"source": "patent US7534766B2", "about": "“Glucuronide metabolites and epimers thereof of tigecycline” (Wyeth, priority 2004, dated 2009)", "assay": "LC/MS detection of tigecycline and its metabolites in humans, dogs and/or rats", "details": "LC/MS of human serum, urine, feces and rat and dog plasma and urine"}
{"substance": "Hydroxy Tigecycline", "values": [{"measurement": "Species in which detected", "result": "R, D, H"}]}
